# Binding of CDR-mutated scFvs to a peptide of the spike HR2 region

Reference: Li et al. 2023, doi:10.1038/s41467-023-39022-2. File: FLAb, binding data.

All variants were tested on one target, the spike HR2 peptide PDVDLGDISGINAS (SARS-CoV-2).

Parent: Ab-14, a human scFv built as VH, a 15-residue (Gly4Ser)3 linker, VL. Only the CDRs of the heavy chain vary.
VH: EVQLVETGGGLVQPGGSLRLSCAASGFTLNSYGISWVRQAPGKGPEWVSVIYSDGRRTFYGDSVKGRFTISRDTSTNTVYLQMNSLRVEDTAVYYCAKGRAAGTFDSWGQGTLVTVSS
VL: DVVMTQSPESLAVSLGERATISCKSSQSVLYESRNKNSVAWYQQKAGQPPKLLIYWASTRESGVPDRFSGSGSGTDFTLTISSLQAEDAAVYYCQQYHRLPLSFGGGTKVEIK

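The starting antibody came from a phage panning campaign against this peptide. The variants were designed computationally from a first round of random CDR variants and then made and measured. Several design methods are mixed in this list. In AlphaSeq, yeast of one mating type display the scFv and yeast of the other type display the target. Binding brings cells together so that they mate, and sequencing counts the barcode pairs among the diploids. Read counts were normalised to the haploid input and turned into Kd by a linear fit to BCL2-family pairs of known affinity, for each replicate. The assay was run in six technical replicates.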

Each variant is given by its three heavy chain CDRs, as the data file delimits them; those of the parent are GFTLNSYGIS, VIYSDGRRTFYGDSVK, GRAAGTFDS. This list holds designs with at most six substitutions. Scale: log10 of Kd in nM, estimated from mating counts; low values are strong binders. Averages over replicates are reported, and they cover detected replicates only. Where no diploid with the target was found in any replicate, the entry reads "nd": below detection, most likely a poor binder, though not proof of it.

- GFSLNEYGIS, VIYADGRRTFYGDSVK, GRAAGTFIS: 1.10 (5 of 6 replicates)
- GFSLNEYGIS, VIYSDGRRTYYGDSVK, GRAAGTFDS: -0.12 (6 of 6 replicates)
- GFTLNDYGIS, VIYSDGRRTFYLDSVR, GRAAFTFDQ: nd (0 of 6 replicates)
- GFELNSYGIS, VIYSDGRRTFYHDSVK, GRTAGTFDT: 0.31 (6 of 6 replicates)
- GFDLNSYGIS, VIYSDGRRTFYGDDVK, GRAAGHFRS: nd (0 of 6 replicates)
- GFTLNSYGIS, VIYSDGRRTAYIDSVK, GRAAGTFTS: nd (0 of 6 replicates)
- GFTLNSYGIS, VIYSDGVRTFYDDSVK, GQLAGTFDS: 0.56 (6 of 6 replicates)
- GFDLNSYGIS, VIYSDGRRTFYADSVK, GRTAGTFDC: 0.18 (6 of 6 replicates)
- GFTINSYGIS, VIYADGRRTFYGDDVK, GRAAGTFDS: 0.04 (6 of 6 replicates)
- GFHLNDYGIS, VIYSDGRRTFYHDSVK, GRLAGTFDS: 0.61 (4 of 6 replicates)
- GFTLNSYGIS, VIYSDGWRTFYGDSVK, GQVAGTFDS: -0.01 (6 of 6 replicates)
- GFTLESYGIS, VIYADGRRTFYGDSVK, GRAAGTFDL: 0.08 (6 of 6 replicates)
- GFTLNSYGIS, VIASDGRRTFYGDSVK, GRAAGTFDS: nd (0 of 6 replicates)
- GFNLNSYGIS, VIYSDGRRTSYDDSVK, GQAAGTFDS: 0.93 (5 of 6 replicates)
- GFDLNSYGIS, VIYSDGRRTFYTDSVK, GQAAGTFDS: 0.23 (6 of 6 replicates)
- GFTLNEYGIS, VIYSDGRRTFYGDSVK, GRHAGTFDE: -0.24 (6 of 6 replicates)
- GFNLNSYGIS, VIYSDGRRTFYGDSVK, GRAAFTFDS: nd (0 of 6 replicates)
- GFTLNSYGIS, VIYSDGRRTFYGDSVK, GRVAGLFNS: 0.44 (4 of 6 replicates)
- GFTLNSYGIS, VIYDDGRRTFYGDVVK, TRAAGTNKS: nd (0 of 6 replicates)
- GFTLNSYGIS, VRYADGVRTFYGDSVK, GRAAGTFDS: nd (0 of 6 replicates)
- GFTLNQYGIS, VIYSDGFRTFYSISVK, GRAKGFFDS: nd (0 of 6 replicates)
- GFSLNSYGIS, VIYSDGRRTFYQDSVK, GETAGTFDS: 0.24 (6 of 6 replicates)
- GFTLKSYGIS, VIYADGRRTFYGDSVK, GKAAGTFDS: 0.90 (6 of 6 replicates)
- GFVLNEYGIS, VIYSDGRRTFYQDSVK, GKAAGTFDS: 1.01 (6 of 6 replicates)
- HFDLNSYGIS, VIYSDGRRTFYADSVK, GREAGTFDS: nd (0 of 6 replicates)
- GFHLNSYGIS, VIYSDGRRTFYGDSVK, GKTAGTFDA: 1.60 (5 of 6 replicates)
- GFDLNSYGIS, VIYSDGRRTFYQDDVK, GQAAGTFDS: nd (0 of 6 replicates)
- GFSLNSYGIS, VIYSDGRRTFYGDSVK, GQTAGTFDA: -0.01 (6 of 6 replicates)
- GFTINSYGIS, VIYSDGRRTFYGDSVK, GRACGTFES: 1.78 (1 of 6 replicates)
- GFTLLMYGIS, VIYSDGRRTFYQDSVK, GRDAGTFDS: nd (0 of 6 replicates)
- GFTLNSYGIS, VIYSDGRRTFYKGSVK, GRAFGTFDS: nd (0 of 6 replicates)

2 of these entries, quoted again:

CDR-H1	CDR-H2	CDR-H3	log10 Kd (nM), mean	replicates with signal
GFTLNDYGIS	VIYSDGRRTFYLDSVR	GRAAFTFDQ	nd	0 of 6
GFDLNSYGIS	VIYSDGRRTFYQDDVK	GQAAGTFDS	nd	0 of 6

Values of this round are not directly comparable with the first-round values of the same sequences. In the paper, a design with two or fewer of six values counts as a poor binder. Background: pairings of all heavy chain designs with three empty control strains gave a value in 1% of cases (median 2.08, 5th percentile 0.84). Values in that range, when seen in few replicates, are hard to tell from nonspecific mating. Of ten entries with the parent sequence, four were seen in most replicates (averages 0.34 to 2.37), three in one and three in none, so single entries are noisy.